Assay: Six-hour Franz Cell study of skin penetration by CBD and THC
Details: Example 2, formulated 1:2 CBD:THC (0.34%:0.68%)

## C=C(C)[C@@H]1CCC(C)=C[C@H]1c1c(O)cc(CCCCC)cc1O [CBD, cannabidiol]
  CBD release relative to THC: twice

From patent US12472140B2, “Composition and method for transdermal delivery of cannabidiol (CBD) and tetrahydrocannabinol (THC)” (Ovation Science Inc., priority 2020, dated 2025)
